Literature values in patent US20240269237A1, “PHARMACEUTICAL COMPOSITION AND KIT COMPRISING AN IMMUNOMODULATORY SUBSTANCE FOR TREATING DISEASES” (ellennbe GmbH, priority 2021, published 2024).

Tested on: rheumatoid arthritis
Details: Patient 7, history 2008 to April 2021

In the case of abatacept, the “effectiveness of earlier treatment” value is given as “insufficient effectiveness”.
